The target in assay [1] is T1, mPGES-1 (Homo sapiens (Human), UniProt O14684). The assay can be described thus: mPGES-1 enzyme assay (HTRF detection of PGE2). The format is biochemical. As to conditions: recombinant human mPGES-1 microsomes, PGH2 2 μM; read-out: mPGES-1 inhibitory effect in the enzyme assay, IC50. As for the experimental part:
Microsomes from Rosetta E. coli bacteria expressing recombinant human mPGES-1 can be derived as described below:
Inoculate 5 ml LB with Ampicilin (50 μg/ml) and Chloramphenicol (34 μg/ml) with bacteria from freeze culture. Incubate 8 h at 37° C. with 200 rpm. Thereafter, inoculate 500-1000 ml LB containing Amp and Chloro with the 5 ml on culture and grow to OD640 of 0.8-1.0. Chill the culture to +4° C. before induction. Induce the culture with IPTG at a final concentration of 400 μM. Express the protein at room temp 18-23° C. with 200 rpm shaking over night.
The following steps can be performed on the following day: • 1. […]
47 μl of recombinant human mPGES-1 (˜0.5 μg protein/well) containing microsomal suspension in a buffer containing GSH, (2.5 mmol/L L-Glutathione reduced, dissolved in 0.1 mol/L Phosphat Buffer pH 7.4) is dispensed in a 384-well plate and thereafter 1 μl of the test compound(s) is/are added and incubated for 25 minutes at room temperature. […] In order to quantify the amount of PGE2 that has been formed, a homogenous time resolved fluorescent (HTRF) detecting of PGE2 has been performed using a commercially available kit from Cisbio according to the manufactures recommendation. […] After an incubation period of the plates over night, the fluorescence is measured by the use of an appropriate microplate reader. […]
Background: In TR-FRET formats the signal depends on donor and acceptor labels being close together.

The chains behind the UniProt entries cited, without tags or fusion partners. Where a name states a change or a piece, a line headed by the entry shows the natural chain unless it says otherwise.
UniProt O14684: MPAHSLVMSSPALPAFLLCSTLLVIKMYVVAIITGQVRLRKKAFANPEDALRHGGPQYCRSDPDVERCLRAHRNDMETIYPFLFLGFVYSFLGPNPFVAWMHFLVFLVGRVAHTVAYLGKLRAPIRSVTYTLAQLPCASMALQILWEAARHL

Assay [2] addresses T1, mPGES-1. The assay can be described thus: A549 cell-based assay (PGE2 formation, IL-1β stimulated, 50% human serum). The following applies: A549 cells, IL-1β 5 ng/ml, read-out: mPGES-1 inhibitory effect in the cell assay, IC50. As for the experimental part:
Although the enzymatic assay is a high throughput assay the disadvantage is that it uses a recombinant protein which is not in its natural environment. Accordingly a cellular assay was established in which a cell line of human origin (A549) expressing the mPGES-1 protein was used. In addition in order to mimic the situation in humans in which compounds can be bound to plasma proteins 50% human serum is added in the assay.
Cells were detached using Trypsin-EDTA. A549 cells were seeded in a 384-well collagene plate at a density of 7000 cells/well (50 μl) in F-12 medium containing 1% Penicillin-Streptomycin and 50% human serum. The cells were allowed to attach for 3-4 h. […] The total volume is 100 μl.
Concentrations of PGE2 in the cell free medium (10 μl) were measured using a commercially available HTRF kit from Cisbio (as described above). The PGE2 formation in the absence of test compound was taken as 100%.
IC50 values were derived from at 6-8 point titrations using conventional software.

For the molecule `Cn1c(Nc2c(Cl)ccc(CNC(=O)C(C)(C)C)c2Cl)nc2cc(C(=O)Nc3ccc(F)c(Cl)c3)c(F)cc21` [Example 17, N-(4-Fluoro-3-chloro-phenyl)-2-{2,6-dichloro-3-[(2,2-dimethyl-propionylamino)-methyl]-phenylamino}-6-fluoro-1-methyl-1H-benzimidazole-5-carboxylic acid amide], the IC50 at mPGES-1 [1] and at mPGES-1 [2] was 1 nM each time.

The IC50 is the concentration needed to halve the response being measured.

The values are drawn from patent publication US8759537B2, “3H-imidazo [4, 5-C] pyridine-6-carboxamides as anti-inflammatory agents” (Boehringer Ingelheim International GmbH, priority 2010, dated 2014).
